Data as given in patent publication US7166733B2, “O,O'-Amidomalonate and N,O-Amidomalonate platinum complexes” (priority 2000, dated 2007).

Test: Platinum release from PBS
Type: physicochemical
Settings: 37° C.
Description: The percent of small platinum species released over time was measured by dissolving about 30 mg of the polymer-platinum conjugate in 15 mL of phosphate buffered saline (10 mM phosphate, 123 mM Cl^−) and incubating the solution at 37° C. in a water bath. At indicated times, 2.0 mL aliquots were transferred to a centrifugal filter with a 3 kDa nominal molecular weight cutoff (Centricon YM-3 from Millipore) and spun until >1.5 mL of filtrate had accumulated. The timed filtrates and the original solution were analyzed for platinum by ICP-OES. The percent of small Pt species released was determined using the formula: ((ppm Pt in filtrate)/(ppm Pt in stock solution))×100.

poly(HPMA)-GFLG-Ama=Pt=DACH, N,O—Pt chelate [Example 6]
Pt release in PBS (3 hours): 2.0%
Pt release in PBS (24 hours): 2.1%
